# Measurements reported in patent US5654422A, “Acylated γ-cyclodextrins” (priority 1994, dated 1997).
# Key:
# [1] = 1440 min
Substance,Water Solubility [%],Solubilization of Hydrocortisone [1] [mg/mL]
"Acetyl-γCD (DS, 1.17) [Ex. 1 Ac-gamma-CD(1.17)]",> 70,49.5
"Acetyl-γ-CD (DS,0.95) [Ex. 3 Ac-gamma-CD(0.95)]",> 70,52.5
"Methyl-γ-cyclodextrin (DS,1.8) [Me-gamma-CD(1.8)]",,39.6
"Acetyl-γ-CD (DS, 0.95) [Ex. 5 Ac-gamma-CD(0.95)]",> 70,53.4
hydroxypropyl-γ-cyclodextrin [Hp-gamma-CD(0.6)],,41
hydroxypropyl-γ-cyclodextrin [Hp-gamma-CD(0.9)],,28
"Acetyl-γ-CD (DS, 0.83) [Ex. 2 Ac-gamma-CD(0.83)]",50.00,46.6
